Experimental data as given in patent US20100222309A1, “SKIN PROPERTY-IMPROVING THERAPEUTIC AGENT COMPRISING A MORPHINAN DERIVATIVE OR ANY OF ITS PHARMACOLOGICALLY PERMISSIBLE ACID ADDITION SALTS AS AN ACTIVE INGREDIENT” (TORAY INDUSTRIES, INC., priority 2007, published 2010).

System: itch patients treated with hemodialysis
Assay: Oral administration of compound 1 soft capsules to itch patients treated with hemodialysis; skin properties and itching observed
Conditions: two capsules (5.0 μg) oral, after start of administration

CN(C(=O)/C=C/c1ccoc1)[C@@H]1CC[C@@]2(O)[C@H]3Cc4ccc(O)c5c4[C@@]2(CCN3CC2CC2)[C@H]1O5.Cl [compound 1]
skin property (smoothness) (patient one): became smoother on the skin in general (especially legs), to have beautiful skin | skin property (dryness of face, complexion) (patient two): became less dry on the face and gained good complexion
